Measurements: patent US7435740B2 (dated 2008)

Target: human recombinant A2A adenosine receptors (Homo sapiens, UniProt P29274)
Test: Radioligand binding to hA2A receptors expressed in CHO cells
Conditions: percentage given after the > bound; meaning not defined in the patent

CCCn1c(=O)c2c(nc3n2CC(CC)=C3)n(Cc2ccccc2)c1=O [Compound 18, 1-Benzyl-7-ethyl-3-propyl-1H-pyrrolo[1,2-f]purine-2,4(3H,6H)-dione]
[3H] ZM 241385 binding to hA2A receptors, percentage in parentheses: 98%
